Here are results for one compound from patent US20210130473A1, “TGFßR1 INHIBITOR-ASGR ANTIBODY CONJUGATES AND USES THEREOF” (Silverback Therapeutics, Inc., priority 2019, published 2021).

Protein sequences, listed by entry. Tags and fused reporters are not part of them. Residues count along the entry.
UniProt P36897, 34-503 limits assumed: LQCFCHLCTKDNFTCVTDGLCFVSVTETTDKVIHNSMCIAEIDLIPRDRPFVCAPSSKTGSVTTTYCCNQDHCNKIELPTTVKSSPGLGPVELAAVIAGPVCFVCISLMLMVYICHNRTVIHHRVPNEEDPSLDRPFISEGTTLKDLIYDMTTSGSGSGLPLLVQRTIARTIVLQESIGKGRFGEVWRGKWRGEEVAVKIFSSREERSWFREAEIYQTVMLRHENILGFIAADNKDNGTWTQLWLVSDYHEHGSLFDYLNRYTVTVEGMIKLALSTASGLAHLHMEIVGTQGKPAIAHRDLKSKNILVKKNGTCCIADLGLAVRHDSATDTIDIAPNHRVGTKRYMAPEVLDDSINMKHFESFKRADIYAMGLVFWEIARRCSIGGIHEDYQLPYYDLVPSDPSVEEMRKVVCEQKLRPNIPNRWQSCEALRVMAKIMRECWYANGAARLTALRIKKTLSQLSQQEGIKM

For one test, the target named is ALK5 (Homo sapiens, UniProt P36897). Briefly: ALK5 enzyme inhibition assay (casein substrate, 10 uM ATP, 33P-ATP, filter-binding; Reaction Biology Corp). The note with it: Table 12.
Test [1] relates to TGFβ/SMAD Signaling Pathway SBE reporter cell line. Briefly: TGFb reporter assay in HEK293 SBE-LUC reporter cells (luciferase). The note with it: key of the table says IC50.

For orientation: IC50 means the point on the concentration scale where inhibition reaches its midpoint. Take `CC(=O)NC1Cc2ccc(NCc3nc(-c4cccc(C)n4)c(-c4ccc5ncnn5c4)[nH]3)cc2C1` (centres unmarked): the IC50 (at ALK5; in test [1]) was 100 to 1000 nM in each case.
